Reference: ChEMBL document CHEMBL4261495, “Antitrypanosomal and antileishmanial activity of prenyl-1,2,3-triazoles” (Medchemcomm, 2017)

Experiment: Octanol/water partition coefficient, log P of the compound
Type: physicochemical

## C[C@@H]1[C@H](O)[C@@H](C)/C=C/C=C/C=C/C=C/C=C/C=C/C=C/[C@H](O[C@@H]2O[C@H](C)[C@@H](O)[C@H](N)[C@@H]2O)C[C@@H]2O[C@](O)(C[C@@H](O)C[C@@H](O)[C@H](O)CC[C@@H](O)C[C@@H](O)CC(=O)O[C@H]1C)C[C@H](O)[C@H]2C(=O)O
  logP: -2.49
